Reference: PubChem BioAssay AID594 (National Center for Advancing Translational Sciences (NCATS), 2007)
The list shows a part of the results, in another mix than the full data. Activity calls are given as the source filed them. Cut-off read from the data, not from the text of the source: active = max dye-equivalent concentration above about 11 nM; inconclusive = between about 1.1 nM and that limit; inactive = weaker than that.

Experiment: qHTS Assay for Spectroscopic Profiling in Rhodamine Spectral Region
Settings: Rhodamine-region fluorescence, 547/598 nm, Tris buffer
Source text: NIH Molecular Libraries Screening Centers Network [MLSCN] NIH Chemical Genomics Center [NCGC] […] Occasionally, the artifactual effect may originate from the compound#s own spectral or other biophysical properties which generally tend to track its assay concentration. Pre-screening/profiling the library with respect to the compounds# spectral properties should help one exclude false positives early on. While the most informative fluorescent profiling data set is obtained by performing a full excitation and emission scan of each well by using a monochromator-based plate reader, such an approach is practical only on a very limited scale as scanning each well requires long time. An alternative approach, applied here, is to perform plate reader scans using selected excitation and emission wavelength pairs to generate a multidimensional relational database that correlates compound concentration and the respective relative fluorescence intensity at a given wavelength set. A standard curve of rhodamine present on each plate as six-point concentration series, was used to compute a normalized fluorescence response, termed dye-equivalent concentration, for each compound at each concentration.
NCGC Assay Protocol Summary: Buffer: 100 mM Tris buffer, pH 8.0 Dye standard plate: The wells in columns 1 through 4 of a Kalypsys polypropylene 1536-well compound plate were filled with standard solutions of fluorophore corresponding to the spectral region of interest. Solutions of rhodamine were placed in the following wells: E1, F1: 3 mM, E2, F2: 300 uM, E3, F3: 30 uM, E4, F4: zero (DMSO), G1, H1: 3 uM, G2, H2: […], G3, H3: 300 nM, G4, H4: zero (DMSO). Assay Steps: Six uL of buffer were dispensed to 1536-well Greiner black plates. Compounds and dye standards (23 nL) were transferred via Kalypsys PinTool. The plates were incubated for 15 min at room temperature, and then read on ViewLux (Perkin-Elmer) High-throughput CCD imager using 547 nm and 598 nm excitation and emission filter set. Keywords: NIH Roadmap, MLSCN, MLI, MLSMR, qHTS, NCGC, Rhodamine , Fluorescent Profiling.

Structure (SMILES) | outcome
[N-]=[N+]=NCC(O)CN=[N+]=[N-] (stereo not given) | inactive
Cc1nc2ccc3ccccc3c2o1.O=[N+]([O-])c1cc([N+](=O)[O-])c(O)c([N+](=O)[O-])c1 | inactive
C(Cc1nn[nH]n1)c1nn[nH]n1 | inactive
COc1ccccc1OP(C)(=O)Nc1ccc(C)c(C)c1 (stereo not given) | inactive
NCC[C@@H](N)CSP(=O)(O)O | inactive
O=[N+]([O-])c1ccc(C[As](=O)(O)O)cc1 | inactive
O=C(CO)Nc1ccc([As](=O)(O)O)cc1 | inactive
N#[O+].[C-]#N.[C-]#N.[C-]#N.[C-]#N.[C-]#N.[Fe+2].[Na+].[Na+] | inactive
CCN(CC)CC(O)COC(=O)C(O)(c1ccccc1)C1CCCCC1 (stereo not given) | inactive
CCc1nc2c(n1)c1c(non1O)c1c2no[n+]1[O-] | inactive
COc1ccccc1OP(C)(=O)Nc1c(C)n(C)n(-c2ccccc2)c1=O (stereo not given) | inactive
C/C1=C2N=C(/C=C3N=C(/C(C)=C4\[N-][C@@](C)([C@H]5N=C1[C@@](C)(CCC(=O)NC[C@H](C)OP(=O)([O-])O[C@@H]1[C@H](O)[C@H](n6cnc7cc(C)c(C)cc76)O[C@@H]1CO)[C@@H]5CC(N)=O)[C@](C)(CC(N)=O)[C@H]4CCC(N)=O)[C@@](C)(CC(N)=O)[C@@H]\3CCC(N)=O)C(C)(C)[C@@H]/2CCC(N)=O.[C-]#N.[Co+3] | inactive
CN(C(=O)Cc1ccccc1)[C@@H]1CC[C@@]2(CCCO2)C[C@H]1N1CCCC1 | inactive
O=C(OC1CN2CCC1CC2)c1cccc(Cl)c1 (stereo not given) | inactive
[N-]=[N+]=Nc1ccc([As](=O)(O)O)cc1 | inactive
CN(C)CCOC(=O)C(O)(c1ccccc1)C1CCCCC1 (stereo not given) | inactive
CN1CCC[C@H](OC(=O)C(c2ccccc2)c2ccccc2)C1 | inactive
NNC(NN)NN.n1nc(-c2nn[nH]n2)n[nH]1 | inactive
C[C@@H](O)COc1ccc([As](=O)(O)O)cc1N | inactive
Cc1ccccc1NP(C)(=O)Nc1ccccc1C | inactive
O=P(Nc1nccs1)(c1ccccc1)c1ccccc1 | inactive
c1nnnn1CCn1cnnn1 | inactive
CCOP(C)(=S)SCC(=O)NC(C)(CC)C(=O)O (stereo not given) | inactive
O=P1(Nc2nc3ccc(Cl)cc3s2)COc2ccccc2O1 (stereo not given) | inactive
CP(=O)(Nc1ccccc1F)Oc1ccccc1 (stereo not given) | inactive
COC(=O)c1cc2c(s1)N=C(c1ccccc1)N(C)P2(=O)N1CCOCC1 (stereo not given) | inactive
NC(=O)Nc1ccc([As](=O)(O)O)cc1 | inactive
CCOP1(=S)c2c(C)nn(CCC#N)c2N=C(c2ccc(F)cc2)N1C (stereo not given) | inactive

Structure (SMILES) | outcome
O=P(Nc1nccs1)(c1ccccc1)c1nc2ccccc2s1 (stereo not given) | inactive
CCOP1(=S)c2c(C)nn(CCC#N)c2N=C(c2ccccc2F)N1C (stereo not given) | inactive
O=[As](O)(O)c1ccc([As](=O)(O)O)cc1 | inactive
O=C(CC(=O)c1ccccc1)O[C@H]1CN2CCC1CC2 | inactive
NS(=O)(=O)Cc1ccc([As](=O)(O)O)cc1 | inactive
CN(C(=O)Cc1ccc(Cl)c(Cl)c1)[C@@H]1CC[C@@]2(CCCO2)C[C@H]1N1CCCC1 | inactive
Cc1cccc(OCC(=O)OC2CN3CCC2CC3)c1 (stereo not given) | inactive
CN(C(=O)Cc1ccc(Cl)c(Cl)c1)[C@@H]1CCCC[C@H]1N1CCCC1 | inactive
Cc1nc2ccc3ccccc3c2s1.O=[N+]([O-])c1cc([N+](=O)[O-])c(O)c([N+](=O)[O-])c1 | inactive
O=P1(Nc2ccccn2)COc2ccccc2OC1 | inactive
CN(CCCl)Cc1cc(Cl)c(NC2=NCCN2)c(Cl)c1 | inactive
Clc1n[nH]nc1-c1nn[nH][15n]1 | inactive
O=P1(Nc2ncccn2)COc2ccccc2OC1 | inactive
O=P1(Nc2ccc(Br)cn2)COc2ccccc2OC1 | inactive
Cc1ccc(OCC(=O)OC2CN3CCC2CC3)cc1 (stereo not given) | inactive
Cc1nn(-c2ccccc2)c2c1P(=O)(N1CCOCC1)N(C)C(c1ccccc1)=N2 (stereo not given) | inactive
CP(=S)(Nn1cnnc1)Oc1ccccc1 (stereo not given) | inactive
N1=C(c2nnc(-c3nn[nH]n3)nn2)NNN1 | inactive
COP1(=S)c2c(C)nn(CCC#N)c2N=C(c2ccc(F)cc2)N1C (stereo not given) | inactive
O=C(O)[C@@H](O)c1ccc([As](=O)(O)O)cc1 | inactive
CP(=O)(NC(=O)Nc1ccccc1)Oc1ccccc1 (stereo not given) | inactive
O=C(COc1ccccc1)OC1CN2CCC1CC2 (stereo not given) | inactive
O=C(OC1CN2CCC1CC2)C12CC3CC(CC(C3)C1)C2 (stereo not given) | inactive
NC(=O)Nc1cc([As](=O)(O)O)cc(I)c1O | inactive
O=[As]c1ccc(S(=O)(=O)NCCO)cc1 (stereo not given) | inactive
[N-]=[N+]=NCC(N)=O | inactive
COc1ccccc1OP(C)(=O)Nc1ccc(C)cc1 (stereo not given) | inactive
